The source of these data is ChEMBL document CHEMBL5252533, “Dual Kinase-Bromodomain Inhibitors in Anticancer Drug Discovery: A Structural and Pharmacological Perspective” (J Med Chem, 2016).

Structures are written as SMILES.

The assay has as its target Bromodomain testis-specific protein (Homo sapiens, UniProt Q58F21). As to the kind of experiment: biochemical. In kind it is cell-based.

A word on the Kd: it is the constant that tells how readily two partners part at equilibrium. Consider `Oc1ccc(-c2nc(-c3ccncc3)c(-c3ccc(F)cc3)[nH]2)cc1` [SB-202190], for which the Kd stood at 3.42 µM.
